We go through 1 compound from paper PMC1971568 (British Journal of Cancer, 1990).

The conditions of data set [1]: for Ratio of AUCs, active drug (generated from prodrug) to unconverted prodrug: Table VII.
In data set [2] the test system is human JAR choriocarcinoma cell line. The settings on record: ref Springer et al., 1990; cited from earlier work.
Data set [3] can be described thus: Stability in phosphate buffered saline (pH 7.4) at 37C, HPLC. The note with it: pH 7.4, 37C.
Data set [4] in a line: Plasma protein binding, Centrifree micropartition filters, human plasma. The settings on record: 2.5 µg ml-1, ± s.e.
The nature of data set [5]: Plasma protein binding, Centrifree micropartition filters, mouse plasma. The note with it: pooled mouse plasma, 2.5 µg ml-1, ± s.e.
Data set [6] in a line: Active drug levels after A5B7-F(ab')2:CPG2 followed by prodrug i.v. 6 days later, non-tumour bearing mice. The note with it: prodrug 160 mg kg-1 i.v., Table VIII.
The mark [7] stands for this setting: plasma, conjugate then prodrug 16 mg kg-1 i.v. 72 h later, Table V.

Where two headings read alike, the source gives them in different places. Where only a bound is given, the exact number is not on record here.

As to `O=C(O)c1ccc(N(CCCl)CCCl)cc1`, the AUC in liver (liver, 41 µmol kg-1 i.p. of the compound itself) came to 39 µg·h/g. Besides, the “t1/2 alpha, initial half life” value (plasma, 41 µmol kg-1 i.p.) is listed as 0.37 h and the “t1/2 alpha, initial half life” value in data set [1] (setting [7]) came to 0.37 h. Also, the “t1/2 beta, final half life” value (plasma, 41 µmol kg-1 i.p.) amounted to 1.61 h and the “t1/2 beta, final half life” value in data set [1] (setting [7]) is 2.71 h. Also, the “Time after prodrug injection at which active drug is measurable” value in data set [1] (all tissues, conjugate 1,000 U kg-1 given earlier) was at most 5 min. Also, the “Ratio of AUCs, active drug (generated from prodrug) to unconverted prodrug” value in data set [1] (kidney) turned out to be 5.5; in data set [1] (liver), 4.2; in data set [1] (lung), 1.3; in data set [1] (tumour, prodrug assumed at limit of detection 0.2 µg h g-1), 29. In addition, the “AUC of generated active drug in liver” value in data set [1] (liver, conjugate then prodrug 16 mg kg-1 i.v. 72 h later) stood at 29 µg·h/g. Also, the “Cytotoxicity to JAR cells relative to prodrug” value in data set [2] is “over 100 times”. For the same compound, the “Half life in phosphate buffered saline” value in data set [3] was 10 h. In addition, the “Bound to plasma proteins” value in data set [4] stood at 96%; in data set [5], 97%. Also, the Active drug level came out at 25.4 µg/g in data set [6] (liver, 5 min); 26.9 µg/g in data set [6] (liver, 15 min); 25.8 µg/g in data set [6] (liver, 30 min); 36.4 µg/g in data set [6] (lung, 5 min); 18.2 µg/g in data set [6] (lung, 15 min); 14.4 µg/g in data set [6] (lung, 30 min). In addition, the Active drug level in data set [6] (plasma, 5 min) was found to be 133.0 µg/mL; in data set [6] (plasma, 15 min) it was 49.0 µg/mL; in data set [6] (plasma, 30 min), 40.5 µg/mL.
